According to ChEMBL document CHEMBL5370584, “Reprogramming Energy Metabolism with Synthesized PDK Inhibitors Based on Dichloroacetate Derivatives and Targeted Delivery Systems for Enhanced Cancer Therapy” (J Med Chem, 2023):
Activity calls are given as the source filed them.

Chains of the proteins cited; added tags and fusions are not shown.
UniProt Q8BFP9, whole entry, looked up: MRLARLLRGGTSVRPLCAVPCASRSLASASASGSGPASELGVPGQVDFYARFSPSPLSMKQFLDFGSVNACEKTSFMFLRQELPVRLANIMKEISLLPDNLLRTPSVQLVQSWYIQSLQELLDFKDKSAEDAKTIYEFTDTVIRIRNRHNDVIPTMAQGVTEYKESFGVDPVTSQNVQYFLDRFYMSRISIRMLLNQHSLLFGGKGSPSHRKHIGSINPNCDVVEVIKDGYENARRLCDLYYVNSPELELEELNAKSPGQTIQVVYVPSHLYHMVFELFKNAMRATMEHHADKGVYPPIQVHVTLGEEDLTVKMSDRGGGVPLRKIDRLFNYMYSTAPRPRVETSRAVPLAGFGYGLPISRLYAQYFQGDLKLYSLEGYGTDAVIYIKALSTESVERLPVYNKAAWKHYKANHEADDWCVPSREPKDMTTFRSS
UniProt Q922H2, whole entry, looked up: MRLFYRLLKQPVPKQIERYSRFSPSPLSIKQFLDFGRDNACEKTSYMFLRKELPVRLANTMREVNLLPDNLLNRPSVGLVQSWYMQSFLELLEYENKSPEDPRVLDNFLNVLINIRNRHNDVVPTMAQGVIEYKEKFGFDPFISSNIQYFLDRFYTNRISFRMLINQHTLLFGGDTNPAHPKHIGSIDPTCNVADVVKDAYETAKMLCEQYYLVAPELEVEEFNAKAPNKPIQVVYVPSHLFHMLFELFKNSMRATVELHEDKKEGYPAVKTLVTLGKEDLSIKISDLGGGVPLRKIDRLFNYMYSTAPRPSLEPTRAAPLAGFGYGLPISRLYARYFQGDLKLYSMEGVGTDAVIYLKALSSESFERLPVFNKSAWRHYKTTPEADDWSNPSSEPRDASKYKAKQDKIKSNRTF
UniProt O70571, whole entry, looked up: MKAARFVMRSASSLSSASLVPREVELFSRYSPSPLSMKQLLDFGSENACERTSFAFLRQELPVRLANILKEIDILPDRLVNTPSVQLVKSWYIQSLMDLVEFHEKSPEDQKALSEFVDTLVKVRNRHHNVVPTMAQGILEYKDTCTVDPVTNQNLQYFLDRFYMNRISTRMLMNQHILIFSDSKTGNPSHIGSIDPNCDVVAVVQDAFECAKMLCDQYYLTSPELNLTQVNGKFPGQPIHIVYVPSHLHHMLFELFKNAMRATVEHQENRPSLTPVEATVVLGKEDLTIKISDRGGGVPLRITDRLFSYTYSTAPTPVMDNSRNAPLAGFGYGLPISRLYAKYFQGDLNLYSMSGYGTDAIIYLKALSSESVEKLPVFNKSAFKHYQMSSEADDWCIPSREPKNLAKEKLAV

Tests used:
[1] = target: [Pyruvate dehydrogenase (acetyl-transferring)] kinase isozyme 1, mitochondrial (Mus musculus) (UniProt Q8BFP9); assay: Inhibition of PDK1 transcription in mouse 4T1 cells at 4 uM incubated for 24 hrs by qPCR analysis; assay type: cell-based
[2] = target: [Pyruvate dehydrogenase (acetyl-transferring)] kinase isozyme 2, mitochondrial (Mus musculus) (UniProt Q9JK42); assay: Inhibition of PDK2 transcription in mouse 4T1 cells at 4 uM incubated for 24 hrs by qPCR analysis; assay type: cell-based
[3] = target: [Pyruvate dehydrogenase (acetyl-transferring)] kinase isozyme 3, mitochondrial (Mus musculus) (UniProt Q922H2); assay: Inhibition of PDK3 transcription in mouse 4T1 cells at 4 uM incubated for 24 hrs by qPCR analysis; assay type: cell-based
[4] = target: [Pyruvate dehydrogenase (acetyl-transferring)] kinase isozyme 4, mitochondrial (Mus musculus) (UniProt O70571); assay: Inhibition of PDK4 transcription in mouse 4T1 cells at 4 uM incubated for 24 hrs by qPCR analysis; assay type: cell-based
4T1 [5] = assay: Inhibition of PDK1 expression in mouse 4T1 cells at 4 uM incubated for 24 hrs by Western blot analysis; assay type: functional, cell-based
4T1 [6] = assay: Inhibition of PDK4 expression in mouse 4T1 cells at 4 uM incubated for 24 hrs by Western blot analysis; assay type: functional, cell-based
4T1 [7] = assay: Inhibition of glycolysis in mouse 4T1 cell lysates assessed as reduction in extracellular acidification rate at 2 uM measured after 6 hrs; assay type: functional, cell-based

Measured: inhibition

Nc1ccc([As]2SCCCS2)cc1
inactive: [1] | [2] | [3] | [4] | 4T1 [5] | 4T1 [6] | 4T1 [7]
